This passage reports IC50 results from patent EP4644396A1 (Visionpharma (Nantong) Co., Ltd, priority 2022, dated 2024).

Sequences of proteins named here, by UniProt entry; tags and fusion partners are left off. Residues count along the entry.
UniProt Q9NYK1, 27-1049 limits assumed: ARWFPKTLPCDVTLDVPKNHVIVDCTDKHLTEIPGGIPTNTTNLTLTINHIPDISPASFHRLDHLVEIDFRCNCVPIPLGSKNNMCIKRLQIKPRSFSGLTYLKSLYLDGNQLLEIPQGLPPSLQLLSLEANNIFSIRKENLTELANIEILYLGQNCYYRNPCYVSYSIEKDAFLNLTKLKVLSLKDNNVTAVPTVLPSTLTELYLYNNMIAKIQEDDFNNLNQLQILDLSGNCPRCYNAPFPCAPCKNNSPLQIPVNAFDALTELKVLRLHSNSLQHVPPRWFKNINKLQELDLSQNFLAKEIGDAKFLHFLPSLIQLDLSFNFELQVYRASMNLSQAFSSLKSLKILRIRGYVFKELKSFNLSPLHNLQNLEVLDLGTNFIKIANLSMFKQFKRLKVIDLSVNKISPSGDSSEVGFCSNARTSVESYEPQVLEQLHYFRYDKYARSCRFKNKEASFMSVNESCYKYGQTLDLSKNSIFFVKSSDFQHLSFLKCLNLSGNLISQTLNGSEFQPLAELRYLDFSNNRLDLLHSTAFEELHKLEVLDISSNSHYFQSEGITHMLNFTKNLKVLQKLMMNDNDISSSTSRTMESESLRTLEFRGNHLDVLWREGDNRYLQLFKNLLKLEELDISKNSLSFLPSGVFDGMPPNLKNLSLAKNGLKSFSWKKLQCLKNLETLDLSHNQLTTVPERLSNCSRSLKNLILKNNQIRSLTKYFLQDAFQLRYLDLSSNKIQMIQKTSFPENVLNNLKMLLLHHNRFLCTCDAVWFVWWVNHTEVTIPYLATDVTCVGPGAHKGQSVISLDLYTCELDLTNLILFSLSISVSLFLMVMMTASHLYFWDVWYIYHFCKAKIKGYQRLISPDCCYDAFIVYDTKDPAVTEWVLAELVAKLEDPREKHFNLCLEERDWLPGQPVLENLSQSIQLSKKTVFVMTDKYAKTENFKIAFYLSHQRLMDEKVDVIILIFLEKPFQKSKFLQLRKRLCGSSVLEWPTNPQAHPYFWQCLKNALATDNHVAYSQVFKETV
UniProt Q9NR97, 27-1041 limits assumed: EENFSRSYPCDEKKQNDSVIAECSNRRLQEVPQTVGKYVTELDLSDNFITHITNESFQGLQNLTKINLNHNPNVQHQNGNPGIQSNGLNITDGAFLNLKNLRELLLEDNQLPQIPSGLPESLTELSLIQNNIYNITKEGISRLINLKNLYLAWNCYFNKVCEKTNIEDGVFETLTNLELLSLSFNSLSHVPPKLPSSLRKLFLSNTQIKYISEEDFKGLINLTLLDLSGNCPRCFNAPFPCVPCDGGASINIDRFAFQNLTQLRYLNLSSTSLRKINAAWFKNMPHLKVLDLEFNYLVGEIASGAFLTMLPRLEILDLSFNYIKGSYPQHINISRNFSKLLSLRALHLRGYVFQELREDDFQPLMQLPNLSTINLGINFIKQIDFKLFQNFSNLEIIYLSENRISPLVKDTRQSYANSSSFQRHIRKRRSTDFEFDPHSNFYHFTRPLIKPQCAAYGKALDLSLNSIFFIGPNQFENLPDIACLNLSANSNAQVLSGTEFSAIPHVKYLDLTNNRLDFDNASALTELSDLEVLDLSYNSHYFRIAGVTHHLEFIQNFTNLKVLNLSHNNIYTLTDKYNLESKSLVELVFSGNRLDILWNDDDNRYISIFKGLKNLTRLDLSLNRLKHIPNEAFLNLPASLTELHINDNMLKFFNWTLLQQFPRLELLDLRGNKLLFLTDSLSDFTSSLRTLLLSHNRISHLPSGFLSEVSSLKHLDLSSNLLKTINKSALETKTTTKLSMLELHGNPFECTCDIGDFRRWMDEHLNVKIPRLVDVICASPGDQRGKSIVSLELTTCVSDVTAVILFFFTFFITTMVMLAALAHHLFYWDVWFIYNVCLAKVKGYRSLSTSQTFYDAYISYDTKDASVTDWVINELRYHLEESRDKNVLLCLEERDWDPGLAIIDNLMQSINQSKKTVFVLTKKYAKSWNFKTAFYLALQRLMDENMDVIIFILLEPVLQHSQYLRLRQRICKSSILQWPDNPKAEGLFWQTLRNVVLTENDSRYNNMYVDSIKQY

One assay has as its target human TLR7 (Homo sapiens, UniProt Q9NYK1). Put plainly: HEK-Blue hTLR7 SEAP reporter gene inhibition assay. Conditions: read-out: HEK-Blue hTLR7 IC50; hTLR7 HEK-Blue cells, TLR7 ligand Gardiquimod 10 µM, 20 hours, SEAP by Quanti-blue; class symbols. As to the method:
(§1) HEK-Blue cells with stable expression of human TLR7 or TLR8 were used in the evaluation of inhibitory activity of compounds in the present invention against TLR7 or TLR8, by using its ability to induce the SEAP reporting gene under the control of the fusion of IFN-β minimum promoters into five NF-κB and ap-1 binding sites, as follows: hTLR7 HEK-Blue cells (Invivogen, 80, 000 cells per well) or hTLR8 HEK-Blue cells (60, 000 cells per well) were added to a 96-well cell culture plate. A solution of the testing compounds were added to each well, with the final concentration of tested compounds in the medium ranged from 0.001 to 36 µM and the culture was incubated for 15 minutes. M5049 was used as positive controls in the testing.
(§2) Then a TLR7 ligand (Gardiquimod, purchased from MedChemExpress, with final concentration of ligand in cell culture medium kept at 10 µM) or a TLR8 ligand (purchased from MedChemExpress with final concentration in cell culture media at 10 µM) and the culture was incubated for 20 hours. According to the manufacturer's instructions, a HEK-Blue reagent Quanti-blue (Invivogen) was used to detect the SEAP levels in cell cultures. The half […] concentration or IC50 was calculated by using GraphPad Prism. The IC50 values were defined as A and B (Against hTLR7 EC50(µM): A < 0.05 µM, B > 0.05 µM; against hTLR8 EC 50(µM): A < = 0.1 µM, B > 0.1 µM; -, as untested). […]

Another assay deals with human TLR8 (Homo sapiens, UniProt Q9NR97). The experiment in a line: HEK-Blue hTLR8 SEAP reporter gene inhibition assay. Conditions: read-out: HEK-Blue hTLR8 IC50; hTLR8 HEK-Blue cells, TLR8 ligand 10 µM, 20 hours, SEAP by Quanti-blue; class symbols. On the procedure:
as §1, §2

Each structure is given as a SMILES string.

In the case of `CC1Cc2c(nn3c2CN(c2ccc(C#N)n4ncc(F)c24)C[C@H]3C)C(C)N1` (single isomer, unassigned), the IC50 at human TLR7 was under 0.05 µM; on human TLR8, over 0.1 µM.
